Results on 1 compound are retold here after patent US20040121946A9, “Inducing cellular immune responses to her2/neu using peptide and nucleic acid compositions” (priority 2002, published 2004).

Molecules are shown by their SMILES.

This assay relates to tumor targets that endogenously express HER2/neu (colon adenocarcinoma cell lines SW403 and HT-29). Description: Primary in vitro CTL induction, recognition of wild-type peptide and endogenous tumor targets (51Cr release / in situ IFNγ ELISA). It is filed as cell-based, human. The settings on record: positive/tested.

Regarding `CC[C@H](C)[C@H](NC(=O)CNC(=O)[C@H](Cc1ccccc1)NC(=O)[C@@H](NC(=O)[C@@H](N)C(C)C)C(C)C)C(=O)N[C@@H](CC(C)C)C(=O)N[C@H](C(=O)N[C@@H](CCCCN)C(=O)N[C@@H](CCCNC(=N)N)C(=O)O)[C@@H](C)CC`, the “CTL Tumor” value (recognition of tumor targets) is given as 0/1. The “CTL Wild-type” value (recognition of wild-type peptide) is recorded as 1/3.
